Like-named read-outs stand apart in the source and are kept apart here.
What was measured:
PARP15 [1] = biological target: T1, PARP15 (Homo sapiens, UniProt Q460N3); experiment: biochemical; assay type: biochemical; design: made in house
T1 sequence (Q460N3 1-678): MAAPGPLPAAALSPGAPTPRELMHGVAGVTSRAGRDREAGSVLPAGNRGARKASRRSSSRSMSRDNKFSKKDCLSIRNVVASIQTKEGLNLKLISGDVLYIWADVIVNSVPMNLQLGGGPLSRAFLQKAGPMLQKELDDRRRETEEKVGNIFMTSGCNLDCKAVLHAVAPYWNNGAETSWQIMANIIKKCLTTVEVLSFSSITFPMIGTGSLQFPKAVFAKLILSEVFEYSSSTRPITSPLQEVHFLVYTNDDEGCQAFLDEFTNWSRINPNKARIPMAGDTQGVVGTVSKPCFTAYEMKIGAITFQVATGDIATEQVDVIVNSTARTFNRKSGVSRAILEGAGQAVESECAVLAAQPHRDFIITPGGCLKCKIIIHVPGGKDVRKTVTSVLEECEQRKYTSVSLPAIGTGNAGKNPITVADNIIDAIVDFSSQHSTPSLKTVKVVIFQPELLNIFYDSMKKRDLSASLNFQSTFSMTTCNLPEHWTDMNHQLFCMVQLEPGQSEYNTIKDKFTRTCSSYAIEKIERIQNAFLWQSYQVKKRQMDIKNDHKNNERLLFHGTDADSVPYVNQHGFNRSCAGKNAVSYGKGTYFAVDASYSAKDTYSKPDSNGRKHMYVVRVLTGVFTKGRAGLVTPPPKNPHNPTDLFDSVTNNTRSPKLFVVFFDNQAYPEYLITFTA

Protein sequences, listed by entry. Tags and fused reporters are not part of them. Lines headed by an entry give the natural chain unless they say otherwise; changes in a name come on top.
UniProt Q9UKK3: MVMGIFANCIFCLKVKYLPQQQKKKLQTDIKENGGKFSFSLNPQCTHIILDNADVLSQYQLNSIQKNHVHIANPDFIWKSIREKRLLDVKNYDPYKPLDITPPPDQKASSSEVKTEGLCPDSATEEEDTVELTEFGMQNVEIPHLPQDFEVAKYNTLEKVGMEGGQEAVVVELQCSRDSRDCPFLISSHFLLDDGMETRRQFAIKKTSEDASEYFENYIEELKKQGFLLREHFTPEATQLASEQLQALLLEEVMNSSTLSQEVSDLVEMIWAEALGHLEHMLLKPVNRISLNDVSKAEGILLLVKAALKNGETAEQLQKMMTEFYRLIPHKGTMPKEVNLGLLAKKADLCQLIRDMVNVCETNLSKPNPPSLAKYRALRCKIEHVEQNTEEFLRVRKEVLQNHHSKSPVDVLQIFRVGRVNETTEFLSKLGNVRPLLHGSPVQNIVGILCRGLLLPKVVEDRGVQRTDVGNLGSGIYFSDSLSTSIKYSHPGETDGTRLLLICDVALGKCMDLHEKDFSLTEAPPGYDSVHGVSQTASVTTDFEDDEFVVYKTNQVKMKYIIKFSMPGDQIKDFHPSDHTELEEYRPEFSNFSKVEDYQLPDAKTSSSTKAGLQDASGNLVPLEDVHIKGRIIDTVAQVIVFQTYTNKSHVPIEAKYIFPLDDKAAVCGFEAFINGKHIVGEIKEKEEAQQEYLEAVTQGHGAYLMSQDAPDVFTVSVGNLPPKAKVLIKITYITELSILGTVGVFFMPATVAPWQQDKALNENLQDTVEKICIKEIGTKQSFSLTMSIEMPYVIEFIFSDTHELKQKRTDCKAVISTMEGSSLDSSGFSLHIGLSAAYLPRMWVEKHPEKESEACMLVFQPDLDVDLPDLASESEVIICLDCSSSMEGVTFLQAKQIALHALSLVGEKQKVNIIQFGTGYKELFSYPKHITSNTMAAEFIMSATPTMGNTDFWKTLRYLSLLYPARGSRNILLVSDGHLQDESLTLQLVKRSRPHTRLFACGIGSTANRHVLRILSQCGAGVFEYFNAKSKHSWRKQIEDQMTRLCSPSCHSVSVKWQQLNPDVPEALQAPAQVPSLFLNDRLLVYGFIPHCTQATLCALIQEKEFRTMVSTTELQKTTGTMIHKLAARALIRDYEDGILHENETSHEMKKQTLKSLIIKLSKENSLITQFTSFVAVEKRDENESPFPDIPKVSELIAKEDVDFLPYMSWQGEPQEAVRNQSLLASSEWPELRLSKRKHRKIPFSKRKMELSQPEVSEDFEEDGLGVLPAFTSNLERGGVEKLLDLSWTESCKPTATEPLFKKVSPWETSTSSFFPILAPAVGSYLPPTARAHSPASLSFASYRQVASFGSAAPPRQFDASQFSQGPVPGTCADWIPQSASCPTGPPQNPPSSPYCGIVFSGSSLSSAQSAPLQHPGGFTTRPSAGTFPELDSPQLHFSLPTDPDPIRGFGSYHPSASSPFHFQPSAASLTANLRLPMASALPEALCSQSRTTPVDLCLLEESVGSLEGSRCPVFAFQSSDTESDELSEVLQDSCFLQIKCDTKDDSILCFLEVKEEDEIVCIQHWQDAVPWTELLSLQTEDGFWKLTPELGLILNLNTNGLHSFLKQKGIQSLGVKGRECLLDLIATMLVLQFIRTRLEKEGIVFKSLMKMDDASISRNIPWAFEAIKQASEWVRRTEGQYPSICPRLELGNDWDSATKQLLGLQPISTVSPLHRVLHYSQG
UniProt Q9Y6F1: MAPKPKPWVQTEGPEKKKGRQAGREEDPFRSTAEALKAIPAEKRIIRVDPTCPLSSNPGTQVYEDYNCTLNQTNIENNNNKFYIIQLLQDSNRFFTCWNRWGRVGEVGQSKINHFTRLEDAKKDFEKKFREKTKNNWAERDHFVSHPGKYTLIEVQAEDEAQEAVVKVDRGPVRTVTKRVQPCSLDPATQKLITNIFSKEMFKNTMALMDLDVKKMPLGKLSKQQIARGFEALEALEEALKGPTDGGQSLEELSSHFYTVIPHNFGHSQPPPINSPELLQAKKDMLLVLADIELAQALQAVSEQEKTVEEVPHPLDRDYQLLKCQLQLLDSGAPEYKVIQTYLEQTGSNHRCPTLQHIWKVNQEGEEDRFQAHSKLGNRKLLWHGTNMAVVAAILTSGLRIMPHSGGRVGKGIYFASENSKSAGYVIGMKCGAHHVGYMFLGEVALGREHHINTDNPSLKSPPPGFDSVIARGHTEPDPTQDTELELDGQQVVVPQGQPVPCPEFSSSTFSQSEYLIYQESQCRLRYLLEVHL
UniProt Q9NR21: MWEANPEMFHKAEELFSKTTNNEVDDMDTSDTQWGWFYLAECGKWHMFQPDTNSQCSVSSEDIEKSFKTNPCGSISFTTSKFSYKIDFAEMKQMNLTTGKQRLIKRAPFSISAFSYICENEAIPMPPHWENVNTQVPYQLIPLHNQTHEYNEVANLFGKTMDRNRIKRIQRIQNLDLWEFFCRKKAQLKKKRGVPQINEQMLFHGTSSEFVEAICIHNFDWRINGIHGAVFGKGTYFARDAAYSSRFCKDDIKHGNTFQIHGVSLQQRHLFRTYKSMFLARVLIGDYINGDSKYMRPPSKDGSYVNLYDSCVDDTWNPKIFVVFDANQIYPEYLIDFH
UniProt Q7Z3E1: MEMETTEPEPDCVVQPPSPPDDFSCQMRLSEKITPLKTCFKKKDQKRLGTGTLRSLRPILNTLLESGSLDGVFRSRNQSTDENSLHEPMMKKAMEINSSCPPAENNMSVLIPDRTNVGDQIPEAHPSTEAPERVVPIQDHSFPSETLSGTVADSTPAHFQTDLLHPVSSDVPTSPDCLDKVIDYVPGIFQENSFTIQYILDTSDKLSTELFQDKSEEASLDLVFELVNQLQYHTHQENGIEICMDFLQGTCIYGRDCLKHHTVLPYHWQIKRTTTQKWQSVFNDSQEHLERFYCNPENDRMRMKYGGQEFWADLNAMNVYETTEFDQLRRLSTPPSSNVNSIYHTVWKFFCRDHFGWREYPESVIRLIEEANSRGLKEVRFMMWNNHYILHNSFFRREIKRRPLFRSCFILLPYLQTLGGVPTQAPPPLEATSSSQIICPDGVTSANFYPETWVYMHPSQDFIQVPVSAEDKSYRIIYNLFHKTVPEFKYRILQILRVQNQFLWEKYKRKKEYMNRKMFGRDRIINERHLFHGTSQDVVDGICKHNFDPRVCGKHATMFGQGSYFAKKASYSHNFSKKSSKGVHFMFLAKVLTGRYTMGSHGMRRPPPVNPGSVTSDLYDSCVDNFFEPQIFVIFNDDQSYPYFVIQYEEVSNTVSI
UniProt Q460N5, whole entry: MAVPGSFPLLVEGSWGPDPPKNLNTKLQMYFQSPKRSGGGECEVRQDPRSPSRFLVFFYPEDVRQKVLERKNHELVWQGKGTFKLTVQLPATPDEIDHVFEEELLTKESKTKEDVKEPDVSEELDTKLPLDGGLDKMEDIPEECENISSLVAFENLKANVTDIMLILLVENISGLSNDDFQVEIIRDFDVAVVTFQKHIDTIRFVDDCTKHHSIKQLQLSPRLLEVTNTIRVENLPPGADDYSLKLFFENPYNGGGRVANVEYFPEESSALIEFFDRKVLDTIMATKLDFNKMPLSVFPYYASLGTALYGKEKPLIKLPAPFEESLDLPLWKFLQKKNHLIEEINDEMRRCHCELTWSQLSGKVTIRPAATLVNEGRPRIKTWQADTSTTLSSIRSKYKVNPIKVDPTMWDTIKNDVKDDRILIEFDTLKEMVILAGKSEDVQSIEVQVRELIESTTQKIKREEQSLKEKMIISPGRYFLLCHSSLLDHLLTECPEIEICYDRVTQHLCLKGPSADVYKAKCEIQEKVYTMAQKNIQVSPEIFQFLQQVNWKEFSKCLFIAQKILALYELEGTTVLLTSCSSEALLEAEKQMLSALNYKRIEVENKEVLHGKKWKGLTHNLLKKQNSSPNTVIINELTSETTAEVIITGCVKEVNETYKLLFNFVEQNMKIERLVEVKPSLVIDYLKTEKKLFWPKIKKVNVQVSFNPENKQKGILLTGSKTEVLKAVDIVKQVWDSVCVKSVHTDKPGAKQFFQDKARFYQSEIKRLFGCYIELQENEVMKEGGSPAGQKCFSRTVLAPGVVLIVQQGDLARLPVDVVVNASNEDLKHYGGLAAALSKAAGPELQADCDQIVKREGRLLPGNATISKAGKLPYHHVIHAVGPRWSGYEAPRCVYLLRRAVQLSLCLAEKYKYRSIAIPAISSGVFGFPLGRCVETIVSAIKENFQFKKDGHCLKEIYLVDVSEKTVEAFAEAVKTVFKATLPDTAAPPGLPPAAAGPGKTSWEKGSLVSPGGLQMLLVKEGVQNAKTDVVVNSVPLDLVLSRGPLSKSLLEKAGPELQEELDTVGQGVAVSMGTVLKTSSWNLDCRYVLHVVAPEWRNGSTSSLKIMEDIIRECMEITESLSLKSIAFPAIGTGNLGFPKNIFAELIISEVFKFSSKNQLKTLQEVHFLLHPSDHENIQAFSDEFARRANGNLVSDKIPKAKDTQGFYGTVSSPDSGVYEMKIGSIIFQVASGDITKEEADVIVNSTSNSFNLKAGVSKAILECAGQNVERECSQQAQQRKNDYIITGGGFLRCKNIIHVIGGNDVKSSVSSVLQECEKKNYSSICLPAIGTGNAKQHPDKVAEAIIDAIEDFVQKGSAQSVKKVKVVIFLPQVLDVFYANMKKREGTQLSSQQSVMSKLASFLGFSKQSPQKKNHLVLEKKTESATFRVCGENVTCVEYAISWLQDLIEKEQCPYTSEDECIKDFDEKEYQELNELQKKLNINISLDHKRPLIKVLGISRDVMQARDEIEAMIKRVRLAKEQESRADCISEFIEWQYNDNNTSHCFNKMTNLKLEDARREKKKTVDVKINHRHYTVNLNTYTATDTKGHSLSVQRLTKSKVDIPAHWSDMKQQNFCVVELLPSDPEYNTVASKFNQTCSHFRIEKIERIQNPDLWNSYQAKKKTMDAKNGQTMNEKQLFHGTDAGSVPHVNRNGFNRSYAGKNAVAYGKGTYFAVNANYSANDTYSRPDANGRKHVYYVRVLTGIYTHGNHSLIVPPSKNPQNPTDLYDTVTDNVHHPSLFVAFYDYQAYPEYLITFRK
UniProt Q9UGN5: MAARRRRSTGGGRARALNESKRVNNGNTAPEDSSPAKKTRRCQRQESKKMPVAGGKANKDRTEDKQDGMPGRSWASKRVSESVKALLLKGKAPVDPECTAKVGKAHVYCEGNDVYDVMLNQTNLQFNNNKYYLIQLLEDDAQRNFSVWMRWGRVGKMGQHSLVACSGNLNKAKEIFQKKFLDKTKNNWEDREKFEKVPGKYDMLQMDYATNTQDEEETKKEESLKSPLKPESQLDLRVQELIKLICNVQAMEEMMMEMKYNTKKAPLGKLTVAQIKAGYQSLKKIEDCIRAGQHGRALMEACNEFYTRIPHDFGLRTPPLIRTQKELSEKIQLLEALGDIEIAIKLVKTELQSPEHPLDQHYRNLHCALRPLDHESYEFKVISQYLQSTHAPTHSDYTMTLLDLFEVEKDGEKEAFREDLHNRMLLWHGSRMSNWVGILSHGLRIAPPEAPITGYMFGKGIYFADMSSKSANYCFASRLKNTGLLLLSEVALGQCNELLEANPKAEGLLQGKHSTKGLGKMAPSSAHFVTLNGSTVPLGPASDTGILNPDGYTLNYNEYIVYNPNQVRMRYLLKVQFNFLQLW

PARP10 [2] = biological target: T2, PARP10 (Homo sapiens, UniProt Q53GL7); experiment: biochemical; assay type: biochemical; design: made in house
T2 sequence (Q53GL7 1-1025): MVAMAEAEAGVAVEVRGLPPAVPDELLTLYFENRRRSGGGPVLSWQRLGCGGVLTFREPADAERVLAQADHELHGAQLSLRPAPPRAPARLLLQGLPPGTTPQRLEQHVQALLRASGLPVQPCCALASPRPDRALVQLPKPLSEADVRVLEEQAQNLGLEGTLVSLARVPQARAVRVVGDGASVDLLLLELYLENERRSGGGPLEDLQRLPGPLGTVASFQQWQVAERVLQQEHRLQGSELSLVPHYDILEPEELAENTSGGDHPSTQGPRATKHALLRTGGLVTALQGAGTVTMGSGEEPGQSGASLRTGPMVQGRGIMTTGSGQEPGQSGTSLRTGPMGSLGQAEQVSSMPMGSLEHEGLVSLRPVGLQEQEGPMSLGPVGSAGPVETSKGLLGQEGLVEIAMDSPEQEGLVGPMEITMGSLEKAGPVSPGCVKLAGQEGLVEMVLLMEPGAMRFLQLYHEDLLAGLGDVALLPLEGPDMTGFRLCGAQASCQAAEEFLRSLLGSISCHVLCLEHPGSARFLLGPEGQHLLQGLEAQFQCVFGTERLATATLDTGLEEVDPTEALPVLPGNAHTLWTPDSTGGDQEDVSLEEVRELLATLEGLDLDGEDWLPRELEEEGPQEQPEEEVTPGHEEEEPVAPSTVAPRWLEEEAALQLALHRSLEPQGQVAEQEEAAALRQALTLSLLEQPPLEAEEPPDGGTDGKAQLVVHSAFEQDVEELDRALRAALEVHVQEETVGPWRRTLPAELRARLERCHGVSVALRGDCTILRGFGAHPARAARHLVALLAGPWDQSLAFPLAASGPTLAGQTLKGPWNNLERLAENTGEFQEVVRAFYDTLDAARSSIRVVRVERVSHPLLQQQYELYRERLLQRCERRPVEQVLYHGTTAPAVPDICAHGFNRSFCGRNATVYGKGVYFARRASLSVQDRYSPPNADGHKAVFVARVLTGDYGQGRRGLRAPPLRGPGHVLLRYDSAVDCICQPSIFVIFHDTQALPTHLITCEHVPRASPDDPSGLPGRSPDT

PARP12 = biological target: T3, PARP12 (Homo sapiens, UniProt Q9H0J9); assay type: biochemical; details: proximity-enhanced assay; > less than 50% inhibition
T3 construct: dockerin domain of Hungateiclostridium thermocellum Cel48s (C); made in house; host or cells: Escherichia coli
T3 sequence (Q9H0J9 1-701): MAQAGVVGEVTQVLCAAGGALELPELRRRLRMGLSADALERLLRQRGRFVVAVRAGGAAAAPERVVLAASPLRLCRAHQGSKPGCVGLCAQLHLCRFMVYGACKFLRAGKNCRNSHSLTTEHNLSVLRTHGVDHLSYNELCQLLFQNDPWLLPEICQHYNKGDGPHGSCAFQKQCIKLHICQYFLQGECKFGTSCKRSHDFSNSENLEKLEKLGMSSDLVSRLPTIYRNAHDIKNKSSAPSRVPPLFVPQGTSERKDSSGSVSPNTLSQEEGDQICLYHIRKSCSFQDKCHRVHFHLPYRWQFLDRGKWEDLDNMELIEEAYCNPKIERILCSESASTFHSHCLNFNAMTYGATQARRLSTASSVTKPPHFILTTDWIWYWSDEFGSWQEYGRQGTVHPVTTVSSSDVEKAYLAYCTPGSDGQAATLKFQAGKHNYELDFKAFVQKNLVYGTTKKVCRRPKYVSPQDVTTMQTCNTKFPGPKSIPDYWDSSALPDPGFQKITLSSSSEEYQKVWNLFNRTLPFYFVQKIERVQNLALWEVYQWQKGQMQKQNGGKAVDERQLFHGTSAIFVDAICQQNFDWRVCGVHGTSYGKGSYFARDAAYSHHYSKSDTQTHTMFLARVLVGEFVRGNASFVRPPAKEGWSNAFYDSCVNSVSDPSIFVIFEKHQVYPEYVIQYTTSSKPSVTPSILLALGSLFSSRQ
Procedure: (§1) We therefore had to improve the assay method and developed a homogeneous proximity enhanced assay for mono-ARTs.[47]
(§2) The proteins used in Tables 1–3 were produced as described earlier. Dockerin constructs to allow enhanced activity assays for mono-ARTs (Table 4) were produced in Escherichia coli with an N-terminal maltose binding protein (MBP) and a C-terminal dockerin domain from Hungateiclostridium thermocellum Cel48s as described recently.[47]
(§3) Inhibition experiments were performed using a homogenous assay measuring NAD+ consumption.[80]−[82] Reactions were carried out in quadruplicate, and IC50 curves were fitted using sigmoidal dose response curve (four variables) in GraphPad Prism version 8.02. […] Assay conditions for PARP2, TNKS2, PARP10, and PARP15 (Tables 1–3) were recently reported.[44] The conditions for the proximity-enhanced mono-ART assays (Table 4) were also reported recently.[47] PARP6 (400 nM) inhibition was measured using the standard buffer (50 mM sodium phosphate pH 7.0) for the enhanced activity assay using 500 nM NAD^+ and 18 h incubation in r.t..

PARP4 = PARP4 (Homo sapiens, UniProt Q9UKK3); details: read-out: PARP4 IC50
Procedure: as §3

PARP3 = PARP3 (Homo sapiens, UniProt Q9Y6F1); details: read-out: PARP3 IC50
Procedure: as §3

PARP15 [3] = biological target: T1, PARP15; details: proximity-enhanced assay
Procedure: as §1, §2, §3

PARP10 [4] = biological target: T2, PARP10; details: proximity-enhanced assay
Procedure: as §1, §2, §3

PARP11 = PARP11 (Homo sapiens, UniProt Q9NR21); details: proximity-enhanced assay
Procedure: as §1, §2, §3

PARP7 = PARP7 (Homo sapiens, UniProt Q7Z3E1); details: read-out: PARP7 IC50; proximity-enhanced assay; ≫ no inhibition at the concentration
Procedure: as §1, §2, §3

PARP14 = PARP14 (Homo sapiens, UniProt Q460N5); details: proximity-enhanced assay
Procedure: as §1, §2, §3

PARP2 = biological target: T4, PARP2 (Homo sapiens, UniProt Q9UGN5); assay type: biochemical; details: > = less than 50% inhibition at highest concentration; ≫ = no inhibition
T4 construct: made in house

[5] = standard assay (Tables 1-3), * value limited by the protein concentration used, > less than 50% inhibition, ≫ no inhibition at the concentration, read-out: PARP15 IC50
[6] = standard assay (Tables 1-3), * value limited by the protein concentration used, > less than 50% inhibition, ≫ no inhibition at the concentration, read-out: PARP10 IC50

SMILES	PARP15 pIC50 ± SEM (PARP15 [1]; standard assay (Tables 1-3))	IC50 (PARP15 [1]; [5])	PARP10 pIC50 ± SEM (PARP10 [2]; standard assay (Tables 1-3))	IC50 (PARP10 [2]; [6])	other results
COc1cccc2c1sc1nncn12 [Compound 12, 8-Methoxy[1,2,4]triazolo[3,4-b][1,3]benzothiazole]	5.93 ± 0.16	1.2 µM	5.71 ± 0.04	1.9 µM	–
COc1ccc(OC)c2c1sc1nnc(NC(=O)C(C)(C)C)n12 [Compound 30, N-(5,8-Dimethoxy[1,2,4]triazolo[3,4-b][1,3]benzothiazol-3-yl)-2,2-dimethylpropanamide]	–	–	–	–	IC50 (PARP15 [1]): > 10 µM; IC50 (PARP10 [2]): > 10 µM
CC(C)c1ccc2c(c1)sc1nncn12 [Compound 6, 7-Isopropyl[1,2,4]triazolo[3,4-b][1,3]benzothiazole]	5.41 ± 0.13	3.9 µM	5.26 ± 0.08	5.5 µM	–
Oc1cccc2c1sc1nncn12 [Compound 17, [1,2,4]Triazolo[3,4-b][1,3]benzothiazol-8-ol]	5.33 ± 0.11	4.7 µM	–	–	–
Cc1ccc2c(c1)sc1nnc(N)n12 [Compound 21, 7-Methyl[1,2,4]triazolo[3,4-b][1,3]benzothiazol-3-amine]	6.53 ± 0.14	0.3 µM	6.73 ± 0.12	0.18 µM	IC50 (PARP12): 4.4 µM; IC50 (PARP4): 10 µM; IC50 (PARP3): 34 µM; PARP15 pIC50 ± SEM (PARP15 [3]; n = 3): 6.59 ± 0.11; IC50 (PARP15 [3]; read-out: PARP15 IC50): 0.26 µM; PARP10 pIC50 ± SEM (PARP10 [4]; n = 3): 7.60 ± 0.03; IC50 (PARP10 [4]; read-out: PARP10 IC50): 0.025 µM; PARP11 pIC50 ± SEM (PARP11; n = 3): 6.33 ± 0.13; IC50 (PARP11; read-out: PARP11 IC50): 0.47 µM; IC50 (PARP7): 3.8 µM; PARP14 pIC50 ± SEM (PARP14; n = 3): 6.19 ± 0.03; IC50 (PARP14; read-out: PARP14 IC50): 0.65 µM
Oc1ccc(O)c2c1sc1nncn12 [Compound 18, [1,2,4]Triazolo[3,4-b][1,3]benzothiazol-5,8-diol]	6.54 ± 0.05	0.29 µM	6.50 ± 0.04	0.32 µM	–
Cc1ccc2c(c1)sc1nncn12 [Compound 1]	–	3.2 µM	–	3.2 µM	–
COc1ccc2c(c1)sc1nncn12 [Compound 11]	–	4 µM	–	6.5 µM	–
COc1cc(OC)c2sc3nncn3c2c1 [Compound 15, 6,8-Dimethoxy[1,2,4]triazolo[3,4-b][1,3]benzothiazole]	–	1.6 µM	–	1.1 µM	–
Cc1cccc2c1sc1nncn12 [Compound 4, 8-Methyl[1,2,4]triazolo[3,4-b][1,3]benzothiazole]	–	7.1 µM	–	3.4 µM	–
CCc1ccc2c(c1)sc1nncn12 [Compound 5, 7-Ethyl[1,2,4]triazolo[3,4-b][1,3]benzothiazole]	5.70 ± 0.04	2 µM	5.31 ± 0.10	4.9 µM	–
COc1ccc(OC)c2c1sc1nnc(NC(C)=O)n12 [Compound 31, N-(5,8-Dimethoxy[1,2,4]triazolo[3,4-b][1,3]benzothiazol-3-yl)acetamide]	–	–	–	–	IC50 (PARP15 [1]): > 10 µM; IC50 (PARP10 [2]): > 10 µM
Cc1cc(C)c2c(c1)sc1nncn12 [Compound 8]	6.11 ± 0.10	0.78 µM	–	1.7 µM	–
COc1ccc(OC)c2c1sc1nnc(SC)n12 [Compound 28]	–	–	–	–	IC50 (PARP2): 8.4 µM
Cc1ccc2sc3nncn3c2c1 [Compound 3, 6-Methyl[1,2,4]triazolo[3,4-b][1,3]benzothiazole]	–	6.6 µM	–	10 µM	–
COc1cccc2sc3nncn3c12 [Compound 13, 5-Methoxy[1,2,4]triazolo[3,4-b][1,3]benzothiazole]	–	–	5.30 ± 0.15	5.1 µM	–
COc1ccc2sc3nncn3c2c1 [Compound 10, 6-Methoxy[1,2,4]triazolo[3,4-b][1,3]benzothiazole]	–	7.1 µM	–	1.8 µM	–
COc1ccc(OC)c2c1sc1nncn12 [Compound 14, 5,8-Dimethoxy[1,2,4]triazolo[3,4-b][1,3]benzothiazole]	–	1.6 µM	6.31 ± 0.22	0.49 µM	–
Cc1ccc2c(c1)sc1nnc(O)n12 [Compound 19]	–	–	5.27 ± 0.13	5.4 µM	–
Clc1ccc2c(c1)sc1nncn12 [Compound 7]	–	7 µM	–	–	–
CSc1nnc2sc3cc(C)ccc3n12 [Compound 22, 7-Methyl-3-(methylthio)[1,2,4]triazolo[3,4-b][1,3]benzothiazole]	–	–	5.45 ± 0.54	3.7 µM	–
Cc1ccc(F)c2c1sc1nncn12 [Compound 9, 5-Fluoro-8-methyl[1,2,4]triazolo[3,4-b][1,3]benzothiazole]	–	6.9 µM	–	5 µM	–

— PMC9884089 (Journal of Medicinal Chemistry, 2023)
